Assay results: patent US7235238 (IMMUNEX, dated 2007)

Assays:
[1] = target: T1, soluble type I IL-1RI/Fc fusion protein (extracellular domain of human type I IL-1R fused to the Fc region … (human, UniProt P14778 18-336)); assay: BIAcore; Fc fusion captured by anti-human IgG Fc serum
T1 construct: extracellular domain; Positive control in the BIAcore assay; also called human type I IL-1R/Fc fusion protein; not shown: Fc region polypeptide (human IgG1, as for 2F1/Fc)
T1 sequence (looked up): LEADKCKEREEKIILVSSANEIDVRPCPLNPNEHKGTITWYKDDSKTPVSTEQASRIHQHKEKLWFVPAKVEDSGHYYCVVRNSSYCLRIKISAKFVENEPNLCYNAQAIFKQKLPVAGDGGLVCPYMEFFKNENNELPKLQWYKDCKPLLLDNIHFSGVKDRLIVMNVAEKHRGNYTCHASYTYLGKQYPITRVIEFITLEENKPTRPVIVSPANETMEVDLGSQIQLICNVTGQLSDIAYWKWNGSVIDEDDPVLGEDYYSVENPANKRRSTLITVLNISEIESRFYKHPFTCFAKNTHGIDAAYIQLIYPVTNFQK
Source text: (§1) A BIAcore biosensor (Pharmacia Biosensor AB, Piscataway, N.J.) was used to examine binding of IL-1 ligands to the human 2F1/Fc fusion protein, using procedures essentially as described in Arend et al. (*J. Immunol.* 153: 4766–4774, 1994). Briefly, a goat anti-human IgG serum directed against the Fc region (Jackson Immunoresearch Laboratories, Inc., West Grove, Pa.), covalently coupled to the dextran matrix of a hydrogel chip, was used to capture the human 2F1/Fc protein. The 2F1/Fc fusion protein thus was immobilized on the BIAcore chip. The three IL-1 ligands, at several different concentrations, were reacted with the captured protein, and the change of mass per unit area over time was measured.

[2] = target: T2, 2F1/Fc soluble fusion protein (human 2F1 extracellular domain joined to the Fc region of a human IgG1) (human, UniProt Q13478 20-329); assay: BIAcore; 2F1/Fc captured by anti-human IgG Fc serum, ligand at several different concentrations
T2 construct: Captured on the BIAcore chip by goat anti-human IgG Fc serum; also called human 2F1/Fc fusion protein; 2F1/Fc protein; not shown: Fc region of a human IgG1; made by procedures analogous to Baum et al. 1994
T2 sequence: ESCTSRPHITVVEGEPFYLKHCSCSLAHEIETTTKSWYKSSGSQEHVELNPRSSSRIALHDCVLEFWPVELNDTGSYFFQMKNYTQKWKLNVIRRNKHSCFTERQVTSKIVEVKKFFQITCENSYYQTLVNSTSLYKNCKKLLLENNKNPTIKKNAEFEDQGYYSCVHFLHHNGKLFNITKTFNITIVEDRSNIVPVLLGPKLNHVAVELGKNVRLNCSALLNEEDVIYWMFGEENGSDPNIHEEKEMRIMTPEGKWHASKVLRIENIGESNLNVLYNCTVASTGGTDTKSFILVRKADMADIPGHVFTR
Source text: as §1

B1: human IL-1 receptor antagonist protein (ligand, UniProt P18510 26-177, looked up)
chain: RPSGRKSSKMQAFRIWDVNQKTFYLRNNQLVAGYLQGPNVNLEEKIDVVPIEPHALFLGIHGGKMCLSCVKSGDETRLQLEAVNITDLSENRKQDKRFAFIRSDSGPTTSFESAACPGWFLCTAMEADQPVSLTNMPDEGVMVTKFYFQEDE
notes: also called IL-1ra
B1: binds [1]; no binding [2].
